Drawing on paper PMC8667020, this text covers screen value for six variants.

To fix the notation:
B1: ASC-YFP [human] / itself (parent)
chain: MGRARDAILDALENLTAEELKKFKLKLLSVPLREGYGRIPRGALLSMDALDLTDKLVSFYLETYGAELTANVLRDMGLQEMAGQLQAATHQGSGAAPAGIQAPPQSAAKPGLHFIDQHRAALIARVTNVEWLLDALYGKVLTDEQYQAVRAEPTNPSKMRKLFSFTPAWNWTCKDLLLQALRESQSYLVEDLERS

Variants of B1 are the subject of the assay. Briefly: flow cytometry of ASC-YFP speck formation in transfected HEK293 cells. Conditions: with itself, read off a plot.
With MGRARDAILDALENLTAEELKKFKLKLLSVPLREGYGRIPRGALLSMDALDLTDKLVSFYLETYGAELTANVLRDMGLQEMAGQLQAATHQGSGAAPAGIQAPPQSAAKPGLHFIDQHRAALIARVTNVEWLLDALYGKVLTDEQYQAVRAEPTNPSKMRKLFSFTPAWNWTCADLLLQALRESQSYLVEDLERS, the screen value is 24%.
As to MGRARDAILDALENLTAEELKKFKLKLLSVPLREGYGRIPRGALLSMDALDLTDKLVSFYLETYGAELTANVLRDMGLQEMAGQLQAATHQGSGAAPAGIQAPPQSAAKPGLHFIDQHRAALIARVTNVEWLLDALYGKVLTDEQYQAVRAEPTNPSKMRKLFSFTPAANWTCKDLLLQALRESQSYLVEDLERS, the screen value stood at 22%.
The figure for MGRARDAILDALENLTAEELKKFKLKLLSVPLREGYGRIPRGALLSMDALDLTDKLVSFYLETYGAELTANVLRDMGLQEMAGQLQAATHQGSGAAPAGIQAPPQSAAKPGLHFIDQHRAALIARVTNVEWLLDALYGKVLTDEQYQAVRAEPTNPSKMRKLFSFTPAWNWTCKDLAAQALRESQSYLVEDLERS is 34%.
The figure for MGRARDAILDALENLTAEELKKFKLKLLSVPLREGYGRIPRGALLSMDALDLTDKLVSFYLETYGAELTANVLRDMGLQEMAGQLQAATHQGSGAAPAGIQAPPQSAAKPGLHFIDQHRAALIARVTNVEWLLDALYGKVLTDEQYQAVRAEPTNPSKMRKLFSFTPAWNWTCKDLLLQALRESQSYLVEDAERS is 17%; for MGRARDAILDALENLTAEELKKFKLKLLSVPLREGYGRIPRGALLSMDALDLTDKLVSFYLETYGAELTANVLRDMGLQEMAGQLQAATHQGSGAAPAGIQAPPQSAAKPGLHFIDQHAAALIARVTNVEWLLDALYGKVLTDEQYQAVRAEPTNPSKMRKLFSFTPAWNWTCKDLLLQALRESQSYLVEDLERS it is 20%.
Turning to MGRARDAILDALENLTAEELKKFKLKLLSVPLREGYGRIPRGALLSMDALDLTDKLVSFYLETYGAELTANVLRDMGLQEMAGQLQAATHQGSGAAPAGIQAPPQSAAKPGLHFIDQARAALIARVTNVEWLLDALYGKVLTDEQYQAVRAEPTNPSKMRKLFSFTPAWNWTCKDLLLQALRESQSYLVEDLERS, the screen value stood at 28%.
